The values that follow come from ChEMBL document CHEMBL1125652, “Kynurenic acid derivatives. Structure-activity relationships for excitatory amino acid antagonism and identification of potent and selective antagonists at the glycine site on the N-methyl-D-aspartate receptor” (J Med Chem, 1991).

In test [1] the target is Glutamate NMDA receptor. The test is described as follows: Inhibition of [3H]-glutamate binding to N-methyl-D-aspartate glutamate receptor of rat cortical membranes. The format is cell membranes, Membrane.
The target of test [2] is Glutamate NMDA receptor. Kind of test: Inhibition of [3H]glycine binding to glycine site of N-methyl-D-aspartate glutamate receptor in rat cortical membranes. The test is classed as cell membranes, Membrane.

Molecules are shown by their SMILES.

The term IC50 denotes the midpoint of a concentration-inhibition curve. A higher IC50 goes with weaker potency in that assay. `O=C(O)c1cc(=O)c2ccccc2[nH]1` [TRANSTORINE]: the IC50 was found to be 184 µM in test [1] and 41 µM in test [2].
